Data published in patent US5041426A, “Immune system enhancing 3-β-d-ribofuranosylthiazolo[4,5-d]pyridimine nucleosides and nucleotides” (priority 1988, dated 1991).

Test system: Mastocytoma (P815) tumor cells
Assay: In vivo potentiation of cytotoxic lymphocytes activity against mastocytoma tumor cells
Set-up: species or system mouse
Conditions: for % Cytotoxicity: DBA/2 mice, compound 7 2 mg/mouse, interleukin-2 50 U per mouse
Experimental: ^a Ten mice in each group were inoculated with 2 × 10^6
tumor cells. After 5 hours, saline or nucleoside compound 7 solution (2
mg/mouse) was administered to each mouse. On days 3,5,7 or 9, spleen cell
were isolated and their cytotoxicity was determined against P815 tumor
cells as described in Gonzales and Sharma.
Compound 7 was tested to determine whether or not it can increase cytotoxic lymphocytes response against mastocytoma tumor cells. In the test mice were immunized with mastocytoma cells (P815) and after 5 hours compound 7 as a solution was given in a dose of […] per mouse.

## Recombinant Interleukin-2: recombinant interleukin-2 was utilized as a control given at 50 U per mouse
Day 5
  % Cytotoxicity: 21%
Day 9
  % Cytotoxicity: 20%
p<0.05
  cytotoxicity versus control group: higher cytotoxicity activity as compared to the control group
